Sequences of proteins named here, by UniProt entry; tags and fusion partners are left off. A change or cut given only in a name is not applied to a line headed by its entry.
UniProt P11802: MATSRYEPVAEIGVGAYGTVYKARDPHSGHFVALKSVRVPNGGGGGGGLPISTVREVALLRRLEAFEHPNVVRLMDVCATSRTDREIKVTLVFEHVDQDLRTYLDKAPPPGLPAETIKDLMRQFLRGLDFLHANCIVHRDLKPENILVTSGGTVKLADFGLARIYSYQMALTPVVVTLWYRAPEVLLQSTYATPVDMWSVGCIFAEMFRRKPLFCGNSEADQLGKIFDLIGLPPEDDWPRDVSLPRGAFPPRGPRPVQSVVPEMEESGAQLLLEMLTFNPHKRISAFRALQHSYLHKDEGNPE
UniProt P50613: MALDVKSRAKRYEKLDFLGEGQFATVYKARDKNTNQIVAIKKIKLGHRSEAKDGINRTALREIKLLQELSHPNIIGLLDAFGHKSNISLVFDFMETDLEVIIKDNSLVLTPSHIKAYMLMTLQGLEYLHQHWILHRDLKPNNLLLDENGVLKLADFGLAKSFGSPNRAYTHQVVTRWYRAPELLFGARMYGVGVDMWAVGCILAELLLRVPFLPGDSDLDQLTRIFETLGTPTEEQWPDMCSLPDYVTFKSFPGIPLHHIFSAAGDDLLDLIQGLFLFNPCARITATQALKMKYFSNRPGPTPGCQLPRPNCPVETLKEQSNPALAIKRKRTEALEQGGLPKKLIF

According to publication PMC2816653, “Pre-clinical evaluation of cyclin-dependent kinase 2 and 1 inhibition in anti-estrogen-sensitive and resistant breast cancer cells” (British Journal of Cancer, 2009):

What was measured:
CDK4/cyclin D1 = CDK4/cyclin D1 (Homo sapiens, UniProt P11802); assay: biochemical; set-up: in vitro kinase inhibition assay; settings: read-out: NU2058 % inhibition
CDK7/cyclin H = CDK7/cyclin H (Homo sapiens, UniProt P50613); assay: biochemical; set-up: in vitro kinase inhibition assay; settings: read-out: NU2058 % inhibition

Question: Which inhibition at 100 µM (CDK4/cyclin D1) does the source give for `Nc1nc(OCC2CCCCC2)c2nc[nH]c2n1` [NU2058] here?
Answer: 33%

Question: And the inhibition at 100 µM (CDK7/cyclin H)?
Answer: 44%
